Experimental findings from patent US8765779B2, “Tricyclic derivatives and their pharmaceutical use and compositions” (Cephalon, Inc., priority 2009, dated 2014) are described below.

Amino acid sequences for entries named in this document (tags omitted).
UniProt P50406, whole entry: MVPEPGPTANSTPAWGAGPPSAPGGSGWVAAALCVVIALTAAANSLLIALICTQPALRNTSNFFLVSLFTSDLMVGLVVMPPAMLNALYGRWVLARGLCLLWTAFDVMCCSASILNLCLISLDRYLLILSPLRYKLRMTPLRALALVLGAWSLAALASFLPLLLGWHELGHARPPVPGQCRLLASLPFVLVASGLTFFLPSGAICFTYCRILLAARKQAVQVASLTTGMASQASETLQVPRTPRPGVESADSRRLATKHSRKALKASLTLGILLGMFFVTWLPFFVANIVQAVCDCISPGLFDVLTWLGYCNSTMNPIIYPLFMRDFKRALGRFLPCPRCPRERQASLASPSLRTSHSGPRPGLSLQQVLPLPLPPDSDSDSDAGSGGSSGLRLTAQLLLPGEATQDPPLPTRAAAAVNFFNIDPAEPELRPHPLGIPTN

The experiment addresses human 5-HT6 receptor (Homo sapiens, UniProt P50406). Briefly: Human 5-HT6 Receptor Binding Assay ([3H]LSD displacement, scintillation beads). The conditions noted are these: read-out: h5-HT6 (Ki); membranes of CHO-K1 cells with recombinant human 5-HT6, 4 nM [3H]LSD; Table 1, class symbols; tested form: HCl.

A value given as a limit tells only on which side of the number the result lay.

For orientation: Ki means a dissociation constant, usually derived from enzyme kinetics or from competition with a known ligand.

Turning to `O=S(=O)(c1cc(F)cc(F)c1)c1ccc2c3c([nH]c2c1)C1(CCCOC1)NCC3` (single isomer, unassigned), the Ki is less than 500 nM.
As to `O=S(=O)(c1cccc(C(F)(F)F)c1)c1ccc2c3c([nH]c2c1)C1(CCCOC1)NCC3` (single isomer, unassigned), the Ki was less than 500 nM.
To `O=S(=O)(c1cccc(OC(F)(F)F)c1)c1ccc2c3c([nH]c2c1)C1(CCCOC1)NCC3` (single isomer, unassigned) belongs less than 500 nM; to `O=S(=O)(c1ccccc1)c1ccc2c3c([nH]c2c1)C1(CCCOC1)NCC3` (single isomer, unassigned), less than 500 nM.
